Literature values as cited in US8575131B2, “Glucuronic acid-containing glucan, process for production of same, and use of same” (National University Corporation Kagoshima University, priority 2009, dated 2013).

Settings: in vivo

PEGASYS: interferon α covalently bound to a PEG chain having a molecular weight of 40,000
half-life in blood: enhanced dramatically
